Results from ChEMBL document CHEMBL6071192, “Modulation of the Adjuvant Potential of Imidazoquinoline-Based TLR7/8 Agonists via Alum Adsorption” (ACS Med Chem Lett, 2024).

Biological target: T1, Toll-like receptor 8 (Homo sapiens, UniProt Q9NR97)
T1 sequence (Q9NR97 whole entry): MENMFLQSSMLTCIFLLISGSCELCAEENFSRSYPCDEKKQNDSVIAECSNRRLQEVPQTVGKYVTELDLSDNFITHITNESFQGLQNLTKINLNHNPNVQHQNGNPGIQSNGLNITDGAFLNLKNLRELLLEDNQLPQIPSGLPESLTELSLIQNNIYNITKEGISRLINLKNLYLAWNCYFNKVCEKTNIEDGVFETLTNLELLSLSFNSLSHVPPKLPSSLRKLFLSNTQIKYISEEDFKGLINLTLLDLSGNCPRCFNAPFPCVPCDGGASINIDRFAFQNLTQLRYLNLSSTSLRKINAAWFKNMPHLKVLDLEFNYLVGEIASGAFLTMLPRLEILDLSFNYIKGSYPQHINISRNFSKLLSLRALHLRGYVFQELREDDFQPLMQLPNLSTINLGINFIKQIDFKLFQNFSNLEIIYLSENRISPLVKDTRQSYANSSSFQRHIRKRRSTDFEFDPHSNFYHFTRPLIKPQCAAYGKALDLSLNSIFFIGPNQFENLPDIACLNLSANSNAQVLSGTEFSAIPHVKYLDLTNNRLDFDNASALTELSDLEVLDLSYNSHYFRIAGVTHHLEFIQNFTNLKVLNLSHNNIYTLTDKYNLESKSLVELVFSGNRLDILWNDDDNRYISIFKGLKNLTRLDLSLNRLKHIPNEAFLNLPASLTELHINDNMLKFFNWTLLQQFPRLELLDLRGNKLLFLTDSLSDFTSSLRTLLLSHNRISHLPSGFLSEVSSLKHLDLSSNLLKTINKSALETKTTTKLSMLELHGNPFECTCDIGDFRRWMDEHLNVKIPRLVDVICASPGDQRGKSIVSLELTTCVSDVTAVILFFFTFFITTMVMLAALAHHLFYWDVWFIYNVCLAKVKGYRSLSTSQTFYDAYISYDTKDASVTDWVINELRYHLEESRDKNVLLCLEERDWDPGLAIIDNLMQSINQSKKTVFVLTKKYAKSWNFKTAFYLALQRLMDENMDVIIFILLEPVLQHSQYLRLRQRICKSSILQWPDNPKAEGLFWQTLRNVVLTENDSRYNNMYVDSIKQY
Experiment: Agonist activity at human TLR8 expressed in HEK293 cells harboring SEAP reporter gene by quanti-blue reagent based analysis
Format: cell-based

Which EC50 does the source give for `CCCCc1nc2c(N)nc3ccccc3c2n1Cc1cccc(CN)c1` here?
The EC50 was 1700 nM.
